# Screening data: PubChem, Broad Institute
# RAD54 branch = inhibitors of human RAD54 branch migration, primary screen, biochemical, fluorescence, single point; RAD54 Holliday junction branch migration, FAM/BHQ fluorescence; inhibition, % at 10.4 µM; 360,000 compounds, 0.14% hits; AID 602329, 2012;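 active = mean normalized replicate activity at least 40 and at least half of replicates scoring 40 or more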;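 note: 0% = median of neutral control wells and 100% = median of positive control wells; inhibitors cause a drop in the FAM fluorescence signal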
# MLL AF4-AF9 inh = inhibitors of AF4 peptide binding to AF9, primary screen, biochemical, AlphaScreen, biotin-AF4 peptide, FLAG-AF9, single point. Protein AF-9 (Homo sapiens), P42568. 350,000 compounds, 0.47% hits. inhibition, % at 10 µM. AID 651704, 2012;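 active = every replicate reaching a set inhibition limit, whatever the replicate mean, cut at about 25% in these data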;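 note: 0% = plate neutral control median and 100% = total signal loss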
# RAD52 anneal inh = RAD52 DNA annealing inhibitors, primary screen, biochemical, FRET, single point, set 2; DNA repair protein RAD52 homolog (Homo sapiens), P43351; recombinant RAD52 DNA annealing, FRET fluorescence; inhibition, % at 18.7 µM; 360,000 compounds, 0.46% hits; AID 651710, 2012;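 active = every replicate showing at least 50% inhibition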
# Yeast UUG start = modulators of start codon recognition fidelity in yeast; activity score, % at 18.7 µM; actives 0.13% (n = 350,000); S. cerevisiae UUG-firefly luciferase reporter, luminescence/redox ratio;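 active = replicate mean at a twofold rise or more, about +100% in these data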;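 note: firefly luciferase made from a UUG start codon reports start codon fidelity; reporter light over untreated wells divided by growth signal over untreated wells; some hits fall short of that in this replicate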
# SIRT5 block = SIRT5 desuccinylase inhibitors, primary screen, biochemical, fluorescence imaging, single point, set 5; Purified SirT5, succinyl-peptide AMC, trypsin-coupled fluorescence; 330,000 compounds, 1.1% hits; inhibition, % at 15 µM; NAD-dependent protein deacylase sirtuin-5, mitochondrial (Homo sapiens), Q9NXA8; in the data active = inhibition above about 15%
# E-selectin induc = E-selectin induction in HUVECs, primary screen, imaging, HUVEC, immunofluorescence imaging, single point | 260,000 compounds, 0.37% hits | normalized: neutral wells 0, TNF-alpha wells 100 | AID 686992, 2013 | P16581 | activation, % at 7.58 µM;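 active = mean E-selectin-positive cell signal at least 10% of the positive control, reached in at least 60% of replicates, without over 20% cell loss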
#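 System: HUVEC / Compound: single concentration / Signal: immunofluorescence imaging / Read-out: percent E-selectin-positive cells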
# Starred values were filed as active, the others as inactive; . = not tested or not shown; ! = a repeat was not active. Compounds with a hit are over-represented: about 1.8% of the library has one in this group of screens.
1: C[C@H](CO)N1C[C@H](C)[C@H](CN(C)Cc2ccc(C(F)(F)F)cc2)Oc2c(NC(=O)c3ccc(-c4nccs4)cc3)cccc2C1=O
2: CS(=O)(=O)Nc1ccc2c(c1)[C@@H]1C[C@@H](CC(=O)N3CCOCC3)O[C@H](CO)[C@@H]1O2
3: C[C@@H]1CN([C@H](C)CO)C(=O)c2cccc(NC(=O)C3CC3)c2O[C@@H]1CN(C)CC1CC1
4: C[C@@H]1CN([C@@H](C)CO)C(=O)c2cccc(NC(=O)C3CC3)c2O[C@@H]1CN(C)CC1CC1
5: C[C@@H]1CN([C@H](C)CO)C(=O)c2cccc(NC(=O)C3CC3)c2O[C@H]1CN(C)CC1CC1
6: C[C@H](CO)N1C[C@H](C)[C@@H](CN(C)CC2CC2)Oc2c(NC(=O)Nc3ccccc3)cccc2C1=O
7: C[C@H](CO)N1C[C@H](C)[C@@H](CN(C)CC2CC2)Oc2c(NC(=O)Cc3ccccc3)cccc2C1=O
8: C[C@@H]1CN([C@@H](C)CO)C(=O)c2cccc(NC(=O)C3CC3)c2O[C@H]1CN(C)CC1CC1

Protein sequences, listed by entry. Tags and fused reporters are not part of them.
Protein AF-9 (Homo sapiens), P42568, UniProt P42568, whole entry, looked up: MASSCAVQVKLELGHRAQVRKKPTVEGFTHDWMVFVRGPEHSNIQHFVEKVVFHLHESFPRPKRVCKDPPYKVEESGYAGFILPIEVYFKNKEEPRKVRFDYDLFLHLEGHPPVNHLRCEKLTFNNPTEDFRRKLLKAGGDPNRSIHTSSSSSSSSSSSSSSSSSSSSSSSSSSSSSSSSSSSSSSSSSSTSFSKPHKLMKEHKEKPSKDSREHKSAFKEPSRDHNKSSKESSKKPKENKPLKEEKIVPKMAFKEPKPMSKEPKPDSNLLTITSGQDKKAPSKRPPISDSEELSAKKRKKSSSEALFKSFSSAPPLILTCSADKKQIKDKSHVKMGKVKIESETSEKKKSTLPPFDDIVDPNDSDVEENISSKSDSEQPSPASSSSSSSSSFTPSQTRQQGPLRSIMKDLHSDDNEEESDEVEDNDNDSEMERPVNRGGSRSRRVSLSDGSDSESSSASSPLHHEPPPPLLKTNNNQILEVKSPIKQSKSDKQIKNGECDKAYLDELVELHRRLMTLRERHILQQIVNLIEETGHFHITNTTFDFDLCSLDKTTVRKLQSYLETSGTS

Assay by compound | 1 | 2 | 3 | 4 | 5 | 6 | 7 | 8
SIRT5 block | 15.7* | 3.3 | -6.9 | -5.8 | -6.2 | -0.2 | 25.1* | 2.1
Yeast UUG start | -2.5 | -15.3 | -7.6 | -8.6 | -6.2 | -8.3 | -17.4 | -7.3
RAD52 anneal inh | 6.4 | 10.1 | -1.9 | -20.7 | 7.6 | -9.9 | -18.1 | 9.6
E-selectin induc | -2.3 | -0.2 | 77.2* | -2.8 | 111.3* | -2.2 | -0.2 | -2.9
RAD54 branch | -3.4 | 2.5 | 8.9 | 4.0 | 8.6 | 10.7 | -7.5 | 8.0
MLL AF4-AF9 inh | 1.7 | -15.2 | -2.9 | -4.4 | -4.3 | -1.5 | 3.2 | -1.6

9: Cc1ccc(-c2ccc3c(c2)O[C@H](CN(C)C(=O)C2CC2)[C@@H](C)CN([C@@H](C)CO)S3(=O)=O)cc1
10: C[C@H]1CN([C@@H](C)CO)C(=O)c2cccc(NC(=O)C3CC3)c2O[C@@H]1CN(C)Cc1ccccc1
11: C/C=C/c1ccc2c(c1)O[C@H](CN(C)C(=O)Nc1ccccc1)[C@H](C)CN([C@H](C)CO)S2(=O)=O
12: CC(=O)N1CC[C@@H]2[C@H]1c1cc(-c3ccccc3)ccc1N(C)[C@H]2CO
13: Cn1c(=O)c2c(nc(CCc3ccccc3)n2C)n(C)c1=O
14: Cn1c(=O)c2c(nc(OCCc3ccccc3)n2C)n(C)c1=O
15: COc1cccc(-c2ccc(C3[C@H]4CNC[C@@H]3N4Cc3ccc(F)cc3)cc2)c1 (stereo not given in full)
16: Fc1cccc(-c2ccc(C3[C@H]4CNC[C@@H]3N4Cc3ccccc3F)cc2)c1 (stereo not given in full)

Assay by compound | 9 | 10 | 11 | 12 | 13 | 14 | 15 | 16
SIRT5 block | 5.9 | 2.2 | 3.4 | . | . | 25.8* | -3.5 | -0.4
Yeast UUG start | -10.1 | -1.6 | -3.5 | 2.9 | -20.9 | -12.6 | . | .
RAD52 anneal inh | 11.7 | 1.0 | 6.1 | . | -18.5 | -7.0 | 19.9 | 59.7*
E-selectin induc | 0.0 | -14.4 | -0.1 | 0.9 | -1.1 | -0.1 | 0.1 | -0.1
RAD54 branch | -4.3 | -12.2 | -7.3 | -3.9 | -5.9 | -10.3 | . | .
MLL AF4-AF9 inh | 1.2 | 1.4 | 4.4 | . | -2.6 | -1.9 | -0.1 | 1.9

# Quoted at random: 2 compounds from above.
14: Cn1c(=O)c2c(nc(OCCc3ccccc3)n2C)n(C)c1=O
15: COc1cccc(-c2ccc(C3[C@H]4CNC[C@@H]3N4Cc3ccc(F)cc3)cc2)c1 (stereo not given in full)

Assay by compound | 14 | 15
SIRT5 block | 25.8* | -3.5
Yeast UUG start | -12.6 | .
RAD52 anneal inh | -7.0 | 19.9
E-selectin induc | -0.1 | 0.1
RAD54 branch | -10.3 | .
MLL AF4-AF9 inh | -1.9 | -0.1

# (cont.)
17: COc1cccc(-c2ccc(C3[C@H]4CNC[C@@H]3N4Cc3cc(F)ccc3F)cc2)c1 (stereo not given in full)
18: COc1cccc(-c2ccc3c(c2)[C@@H]2[C@@H](CCN2S(=O)(=O)c2ccccc2OC)[C@@H](CO)N3)c1
19: CCn1c(CNC(=O)Cc2ccc(OC)cc2)nnc1SCC(=O)c1ccccc1
20: COc1ccc(C(=O)NCc2nnc(SCC(=O)NO)n2Cc2ccccc2)cc1
21: Cc1ccc2nc(=O)c(NNc3ccccc3)cnc2c1
22: O=S(=O)(N[C@H]1CC[C@@H](CCn2cc(-c3cccc(F)c3)nn2)O[C@H]1CO)c1ccc(F)cc1
23: CC(C)c1cn(CC[C@@H]2CC[C@H](NS(=O)(=O)c3ccc(F)cc3)[C@H](CO)O2)nn1

Assay by compound | 17 | 18 | 19 | 20 | 21 | 22 | 23
SIRT5 block | -5.4 | 2.8 | 8.6 | 1.5 | 1.8 | 1.0 | -1.4
Yeast UUG start | . | -5.2 | . | . | . | -10.4 | 0.0
RAD52 anneal inh | 54.2*! | -19.1 | -17.3 | -2.2 | -3.6 | -3.9 | -17.2
E-selectin induc | -0.1 | 0.4 | 3.8 | -0.2 | 178.0* | 0.0 | -0.1
RAD54 branch | . | 2.0 | . | . | . | -7.2 | -7.5
MLL AF4-AF9 inh | 1.9 | -0.3 | -10.1 | 25.9* | 2.4 | -0.8 | -2.1
